# Measured values reported in patent US20160151380A1, “THERAPIES FOR DISEASES CAUSED BY ARTHROPOD-BORNE PARASITES” (THE REGENTS OF THE UNIVERSITY OF CALIFORNIA, priority 2013, published 2016).
# By UniProt entry, the sequences of proteins in these tests, tags left out.
# UniProt P53779, whole entry, species assumed: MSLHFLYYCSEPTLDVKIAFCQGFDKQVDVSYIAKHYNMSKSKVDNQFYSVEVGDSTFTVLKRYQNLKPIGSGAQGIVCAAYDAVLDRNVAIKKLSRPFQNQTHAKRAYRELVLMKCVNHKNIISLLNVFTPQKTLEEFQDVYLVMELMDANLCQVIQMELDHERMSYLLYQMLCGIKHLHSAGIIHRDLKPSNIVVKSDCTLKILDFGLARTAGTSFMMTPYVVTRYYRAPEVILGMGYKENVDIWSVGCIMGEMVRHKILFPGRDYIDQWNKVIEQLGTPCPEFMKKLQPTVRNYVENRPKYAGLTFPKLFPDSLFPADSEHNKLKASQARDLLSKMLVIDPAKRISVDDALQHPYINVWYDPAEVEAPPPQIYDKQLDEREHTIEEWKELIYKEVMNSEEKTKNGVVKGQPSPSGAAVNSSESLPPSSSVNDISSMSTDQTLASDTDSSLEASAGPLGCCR
# UniProt P45983, whole entry, species assumed: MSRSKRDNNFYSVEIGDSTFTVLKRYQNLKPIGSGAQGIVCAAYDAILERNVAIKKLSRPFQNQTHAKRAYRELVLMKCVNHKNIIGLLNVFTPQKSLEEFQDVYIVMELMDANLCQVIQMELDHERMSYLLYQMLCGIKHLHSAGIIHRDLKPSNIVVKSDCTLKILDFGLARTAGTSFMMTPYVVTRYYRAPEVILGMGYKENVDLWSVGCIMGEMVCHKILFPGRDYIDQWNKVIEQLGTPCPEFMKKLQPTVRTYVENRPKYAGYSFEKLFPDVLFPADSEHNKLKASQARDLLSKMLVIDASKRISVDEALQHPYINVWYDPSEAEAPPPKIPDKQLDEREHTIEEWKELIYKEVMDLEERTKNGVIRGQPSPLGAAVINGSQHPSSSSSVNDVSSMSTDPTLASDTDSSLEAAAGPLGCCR
# Tests used:
# PKCepsilon = biological target: T1, PKCepsilon (Homo sapiens, UniProt Q02156); conditions: cited from earlier work
# T1 sequence (Q02156 1-737): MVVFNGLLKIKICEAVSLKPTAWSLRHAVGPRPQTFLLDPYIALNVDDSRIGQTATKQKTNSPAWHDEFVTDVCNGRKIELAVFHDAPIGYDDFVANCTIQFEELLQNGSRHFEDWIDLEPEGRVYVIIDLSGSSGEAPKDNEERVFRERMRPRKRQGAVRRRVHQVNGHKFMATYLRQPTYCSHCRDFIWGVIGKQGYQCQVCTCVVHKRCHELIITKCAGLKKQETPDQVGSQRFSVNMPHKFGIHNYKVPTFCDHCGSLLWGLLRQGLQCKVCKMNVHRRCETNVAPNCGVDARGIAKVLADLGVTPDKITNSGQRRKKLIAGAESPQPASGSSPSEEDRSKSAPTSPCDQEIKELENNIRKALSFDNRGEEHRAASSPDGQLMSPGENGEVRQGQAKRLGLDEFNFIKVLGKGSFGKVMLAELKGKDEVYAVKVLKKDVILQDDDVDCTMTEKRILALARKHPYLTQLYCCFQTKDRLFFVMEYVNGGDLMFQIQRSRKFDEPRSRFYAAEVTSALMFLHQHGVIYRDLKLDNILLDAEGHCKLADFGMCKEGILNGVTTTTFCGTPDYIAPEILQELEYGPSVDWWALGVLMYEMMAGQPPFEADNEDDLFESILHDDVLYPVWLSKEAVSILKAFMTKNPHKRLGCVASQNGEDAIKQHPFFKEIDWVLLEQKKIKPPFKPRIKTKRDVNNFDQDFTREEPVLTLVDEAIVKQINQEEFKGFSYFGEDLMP
# JNK3 = JNK3 (Homo sapiens, UniProt P53779); conditions: cited from earlier work
# JNK1 = JNK1 (Homo sapiens, UniProt P45983); conditions: cited from earlier work
# [1] = system: Anopheles stephensi p38 MAPK; assay: MK2 phosphorylation in LPS-stimulated ASE cells (western blot); format: cell-based; conditions: ASE cells pre-incubated with 10 μM inhibitor, 2 h later 1 μg/ml LPS
compound,measurement,setting,value
O=C(N[C@@H]1CNCCC[C@H]1OC(=O)c1cc(O)c(C(=O)c2c(O)cccc2C(=O)O)c(O)c1)c1ccc(O)cc1 [Ophiocordin],IC50,PKCepsilon,20 nM
Cc1cc(NC(=O)c2cccc(NC(=O)/C=C/CN(C)C)c2)ccc1Nc1nccc(-c2cccnc2)n1 [JNKIN8],IC50,JNK3,< 40 nM
same,IC50,JNK1,< 40 nM
"Cc1ccc(-n2nc(C(C)(C)C)cc2NC(=O)Nc2ccc(OCCN3CCOCC3)c3ccccc23)cc1 [BIRB 796, 1-[5-tert-butyl-2-(4-methylphenyl)pyrazol-3-yl]-3-[4-(2-morpholin-4-ylethoxy)naphthalen-1-yl]urea]",p-MK2 levels,[1],undetectable
